# Target: JAK2 (Homo sapiens, UniProt O60674)
# Amino acid sequences for entries named in this document (tags omitted).
# UniProt O60674, whole entry, species assumed: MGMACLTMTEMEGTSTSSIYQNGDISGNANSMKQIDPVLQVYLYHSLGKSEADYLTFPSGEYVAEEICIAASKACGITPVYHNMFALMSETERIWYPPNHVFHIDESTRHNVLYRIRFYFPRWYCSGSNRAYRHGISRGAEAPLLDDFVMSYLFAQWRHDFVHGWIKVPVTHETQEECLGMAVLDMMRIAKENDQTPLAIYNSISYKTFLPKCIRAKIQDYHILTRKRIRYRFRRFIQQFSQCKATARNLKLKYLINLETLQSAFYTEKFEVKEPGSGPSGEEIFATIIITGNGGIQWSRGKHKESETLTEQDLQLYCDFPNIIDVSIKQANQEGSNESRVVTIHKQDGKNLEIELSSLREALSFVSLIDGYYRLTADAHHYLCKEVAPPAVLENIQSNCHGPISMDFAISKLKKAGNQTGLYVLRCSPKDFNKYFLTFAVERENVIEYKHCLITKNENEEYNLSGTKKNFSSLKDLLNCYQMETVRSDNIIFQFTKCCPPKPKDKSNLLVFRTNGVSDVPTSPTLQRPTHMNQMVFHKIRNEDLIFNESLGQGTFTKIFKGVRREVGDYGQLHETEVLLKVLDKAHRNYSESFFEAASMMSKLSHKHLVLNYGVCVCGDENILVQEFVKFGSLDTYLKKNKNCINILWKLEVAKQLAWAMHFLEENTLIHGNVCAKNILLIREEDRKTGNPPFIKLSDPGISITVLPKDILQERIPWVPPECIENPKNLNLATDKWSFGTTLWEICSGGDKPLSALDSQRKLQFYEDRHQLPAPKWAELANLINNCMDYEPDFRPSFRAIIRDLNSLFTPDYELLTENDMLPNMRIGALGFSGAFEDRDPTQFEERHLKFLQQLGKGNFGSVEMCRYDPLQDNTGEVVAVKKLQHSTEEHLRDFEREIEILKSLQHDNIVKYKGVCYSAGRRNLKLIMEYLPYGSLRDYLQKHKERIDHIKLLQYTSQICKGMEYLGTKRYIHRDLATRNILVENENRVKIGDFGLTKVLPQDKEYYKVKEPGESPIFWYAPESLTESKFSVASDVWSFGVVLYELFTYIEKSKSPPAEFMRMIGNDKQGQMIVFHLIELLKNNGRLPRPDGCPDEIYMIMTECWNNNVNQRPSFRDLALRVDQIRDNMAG
# Assay: Caliper Mobility Shift Assay, kinase inhibition
# Format: biochemical
structure (smiles),measurement,value
"CCS(=O)(=O)N1CC(CC#N)(n2cc(-c3ncnc4[nH]ccc34)cn2)C1 [Baricitinib, reference compound]",IC50,0.83 nM
